In ChEMBL document CHEMBL1135549, “Oxygenated metabolites of anandamide and 2-arachidonoylglycerol: conformational analysis and interaction with cannabinoid receptors, membrane transporter, and fatty acid amide hydrolase” (J Med Chem, 2002):

Molecular target: T1, Cannabinoid receptor 2 (Rattus norvegicus, UniProt Q9QZN9)
T1 sequence (Q9QZN9 whole entry): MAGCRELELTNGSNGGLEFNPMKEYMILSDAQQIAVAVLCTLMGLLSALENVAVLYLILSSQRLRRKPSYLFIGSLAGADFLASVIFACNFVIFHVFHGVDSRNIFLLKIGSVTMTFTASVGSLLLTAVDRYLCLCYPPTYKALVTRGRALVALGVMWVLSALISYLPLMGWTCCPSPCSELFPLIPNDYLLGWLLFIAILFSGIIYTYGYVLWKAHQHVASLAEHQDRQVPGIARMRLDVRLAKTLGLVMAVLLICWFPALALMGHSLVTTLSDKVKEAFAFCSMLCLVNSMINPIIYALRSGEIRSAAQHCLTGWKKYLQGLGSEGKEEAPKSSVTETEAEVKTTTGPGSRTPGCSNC
Experiment: Displacement of [3H]CP-55940 from rat forebrain membrane which expresses Cannabinoid receptor 2 in the presence of PMSF

CCCCC/C=C\C/C=C\C/C=C\C/C=C\CCCC(=O)NCCO [ANANDAMIDE]
Ki: 360 nM
